Protein sequences, listed by entry. Tags and fused reporters are not part of them. Lines headed by an entry give the natural chain unless they say otherwise; changes in a name come on top.
UniProt P51813: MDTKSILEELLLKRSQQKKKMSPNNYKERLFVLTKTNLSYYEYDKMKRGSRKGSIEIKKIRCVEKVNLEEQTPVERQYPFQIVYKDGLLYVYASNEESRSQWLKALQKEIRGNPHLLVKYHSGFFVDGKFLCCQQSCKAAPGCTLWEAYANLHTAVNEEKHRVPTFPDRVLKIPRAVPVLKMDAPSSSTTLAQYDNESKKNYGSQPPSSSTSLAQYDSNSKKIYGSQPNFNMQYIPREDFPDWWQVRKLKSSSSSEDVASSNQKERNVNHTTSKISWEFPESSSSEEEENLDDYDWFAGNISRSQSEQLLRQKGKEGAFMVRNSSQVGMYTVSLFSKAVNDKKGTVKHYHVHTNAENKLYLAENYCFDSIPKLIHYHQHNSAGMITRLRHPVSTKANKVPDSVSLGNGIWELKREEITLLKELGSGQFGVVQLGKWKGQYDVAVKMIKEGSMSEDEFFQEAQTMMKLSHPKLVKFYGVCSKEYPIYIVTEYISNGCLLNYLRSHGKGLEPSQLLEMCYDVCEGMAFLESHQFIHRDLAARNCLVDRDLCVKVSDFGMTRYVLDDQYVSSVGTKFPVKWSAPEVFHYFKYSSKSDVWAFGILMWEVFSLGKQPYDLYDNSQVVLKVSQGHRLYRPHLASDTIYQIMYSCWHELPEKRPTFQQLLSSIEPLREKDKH
UniProt Q13557, whole entry, looked up: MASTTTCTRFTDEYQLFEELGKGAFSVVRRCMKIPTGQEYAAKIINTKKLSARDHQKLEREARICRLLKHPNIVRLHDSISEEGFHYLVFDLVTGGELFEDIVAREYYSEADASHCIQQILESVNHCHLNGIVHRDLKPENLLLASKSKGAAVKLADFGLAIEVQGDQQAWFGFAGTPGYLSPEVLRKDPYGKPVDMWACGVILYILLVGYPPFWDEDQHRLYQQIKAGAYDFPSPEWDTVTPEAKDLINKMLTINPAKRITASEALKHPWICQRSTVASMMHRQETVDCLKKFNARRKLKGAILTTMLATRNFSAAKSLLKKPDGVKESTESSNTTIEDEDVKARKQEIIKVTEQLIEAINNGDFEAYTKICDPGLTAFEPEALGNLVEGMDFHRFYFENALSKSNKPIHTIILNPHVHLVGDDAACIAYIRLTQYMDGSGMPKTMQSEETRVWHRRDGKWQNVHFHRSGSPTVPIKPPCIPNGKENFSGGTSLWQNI
UniProt O43293: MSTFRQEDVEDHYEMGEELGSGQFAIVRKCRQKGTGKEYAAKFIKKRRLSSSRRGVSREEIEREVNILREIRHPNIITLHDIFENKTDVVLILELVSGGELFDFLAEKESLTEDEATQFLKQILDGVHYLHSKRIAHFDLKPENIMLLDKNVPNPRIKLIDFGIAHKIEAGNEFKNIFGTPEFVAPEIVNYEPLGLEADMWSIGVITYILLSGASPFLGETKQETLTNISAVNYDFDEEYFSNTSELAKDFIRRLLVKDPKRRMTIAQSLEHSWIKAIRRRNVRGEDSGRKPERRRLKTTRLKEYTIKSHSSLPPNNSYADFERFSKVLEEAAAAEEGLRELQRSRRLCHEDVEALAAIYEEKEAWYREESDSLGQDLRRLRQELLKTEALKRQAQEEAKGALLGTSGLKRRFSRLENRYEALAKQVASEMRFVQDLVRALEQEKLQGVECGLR
UniProt Q9HBH9: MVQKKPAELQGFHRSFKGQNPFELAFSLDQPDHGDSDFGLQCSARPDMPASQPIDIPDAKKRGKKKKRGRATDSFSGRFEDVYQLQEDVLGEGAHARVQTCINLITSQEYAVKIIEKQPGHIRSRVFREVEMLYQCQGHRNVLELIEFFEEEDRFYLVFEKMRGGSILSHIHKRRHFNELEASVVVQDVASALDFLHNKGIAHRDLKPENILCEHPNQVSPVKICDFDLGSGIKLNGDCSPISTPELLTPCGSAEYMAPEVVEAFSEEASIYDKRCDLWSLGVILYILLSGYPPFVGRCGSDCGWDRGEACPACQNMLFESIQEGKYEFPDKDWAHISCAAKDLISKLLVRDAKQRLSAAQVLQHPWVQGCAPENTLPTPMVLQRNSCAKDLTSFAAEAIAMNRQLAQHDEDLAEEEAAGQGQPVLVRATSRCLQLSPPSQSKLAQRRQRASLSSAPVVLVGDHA
UniProt Q05513: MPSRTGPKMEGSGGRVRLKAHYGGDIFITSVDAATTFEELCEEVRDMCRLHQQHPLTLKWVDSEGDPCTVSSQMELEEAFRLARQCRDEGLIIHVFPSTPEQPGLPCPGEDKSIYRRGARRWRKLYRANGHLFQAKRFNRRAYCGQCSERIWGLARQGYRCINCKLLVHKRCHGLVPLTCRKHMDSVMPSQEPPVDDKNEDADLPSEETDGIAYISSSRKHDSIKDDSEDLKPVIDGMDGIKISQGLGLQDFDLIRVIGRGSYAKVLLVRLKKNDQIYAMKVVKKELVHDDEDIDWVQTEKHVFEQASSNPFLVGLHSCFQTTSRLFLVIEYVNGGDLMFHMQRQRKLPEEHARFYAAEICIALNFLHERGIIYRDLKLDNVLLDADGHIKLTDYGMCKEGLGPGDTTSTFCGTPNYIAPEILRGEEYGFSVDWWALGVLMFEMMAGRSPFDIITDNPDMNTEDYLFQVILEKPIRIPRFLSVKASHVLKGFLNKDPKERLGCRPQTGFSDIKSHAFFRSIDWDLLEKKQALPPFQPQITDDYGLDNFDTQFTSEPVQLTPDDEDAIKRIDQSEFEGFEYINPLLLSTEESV
UniProt O15264: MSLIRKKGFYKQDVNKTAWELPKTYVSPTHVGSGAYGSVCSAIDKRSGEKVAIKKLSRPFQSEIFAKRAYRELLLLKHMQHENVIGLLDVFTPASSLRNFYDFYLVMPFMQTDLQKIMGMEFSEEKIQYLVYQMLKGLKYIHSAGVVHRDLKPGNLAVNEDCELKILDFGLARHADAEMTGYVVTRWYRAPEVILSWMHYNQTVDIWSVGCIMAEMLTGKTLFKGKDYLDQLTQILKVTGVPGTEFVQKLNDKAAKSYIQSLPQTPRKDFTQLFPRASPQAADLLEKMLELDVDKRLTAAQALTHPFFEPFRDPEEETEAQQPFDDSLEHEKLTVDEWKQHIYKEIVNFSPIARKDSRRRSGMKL
UniProt Q06187: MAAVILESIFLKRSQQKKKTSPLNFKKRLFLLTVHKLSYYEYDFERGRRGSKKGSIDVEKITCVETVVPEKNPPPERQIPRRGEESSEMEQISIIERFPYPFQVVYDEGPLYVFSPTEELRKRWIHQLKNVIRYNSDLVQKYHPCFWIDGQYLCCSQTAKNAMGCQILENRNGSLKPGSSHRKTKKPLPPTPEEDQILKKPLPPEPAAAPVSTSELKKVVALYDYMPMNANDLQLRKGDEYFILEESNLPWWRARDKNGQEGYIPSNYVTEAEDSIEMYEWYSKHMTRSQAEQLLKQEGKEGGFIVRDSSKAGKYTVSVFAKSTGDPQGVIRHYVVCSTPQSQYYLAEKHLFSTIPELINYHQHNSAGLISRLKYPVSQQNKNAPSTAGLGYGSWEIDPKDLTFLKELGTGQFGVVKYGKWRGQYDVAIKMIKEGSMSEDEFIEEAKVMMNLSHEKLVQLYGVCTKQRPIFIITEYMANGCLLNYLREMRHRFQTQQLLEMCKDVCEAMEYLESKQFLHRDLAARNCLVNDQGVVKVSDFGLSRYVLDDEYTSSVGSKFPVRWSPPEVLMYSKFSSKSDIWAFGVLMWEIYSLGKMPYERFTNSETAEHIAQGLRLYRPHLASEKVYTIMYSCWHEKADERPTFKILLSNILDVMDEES
UniProt P16234: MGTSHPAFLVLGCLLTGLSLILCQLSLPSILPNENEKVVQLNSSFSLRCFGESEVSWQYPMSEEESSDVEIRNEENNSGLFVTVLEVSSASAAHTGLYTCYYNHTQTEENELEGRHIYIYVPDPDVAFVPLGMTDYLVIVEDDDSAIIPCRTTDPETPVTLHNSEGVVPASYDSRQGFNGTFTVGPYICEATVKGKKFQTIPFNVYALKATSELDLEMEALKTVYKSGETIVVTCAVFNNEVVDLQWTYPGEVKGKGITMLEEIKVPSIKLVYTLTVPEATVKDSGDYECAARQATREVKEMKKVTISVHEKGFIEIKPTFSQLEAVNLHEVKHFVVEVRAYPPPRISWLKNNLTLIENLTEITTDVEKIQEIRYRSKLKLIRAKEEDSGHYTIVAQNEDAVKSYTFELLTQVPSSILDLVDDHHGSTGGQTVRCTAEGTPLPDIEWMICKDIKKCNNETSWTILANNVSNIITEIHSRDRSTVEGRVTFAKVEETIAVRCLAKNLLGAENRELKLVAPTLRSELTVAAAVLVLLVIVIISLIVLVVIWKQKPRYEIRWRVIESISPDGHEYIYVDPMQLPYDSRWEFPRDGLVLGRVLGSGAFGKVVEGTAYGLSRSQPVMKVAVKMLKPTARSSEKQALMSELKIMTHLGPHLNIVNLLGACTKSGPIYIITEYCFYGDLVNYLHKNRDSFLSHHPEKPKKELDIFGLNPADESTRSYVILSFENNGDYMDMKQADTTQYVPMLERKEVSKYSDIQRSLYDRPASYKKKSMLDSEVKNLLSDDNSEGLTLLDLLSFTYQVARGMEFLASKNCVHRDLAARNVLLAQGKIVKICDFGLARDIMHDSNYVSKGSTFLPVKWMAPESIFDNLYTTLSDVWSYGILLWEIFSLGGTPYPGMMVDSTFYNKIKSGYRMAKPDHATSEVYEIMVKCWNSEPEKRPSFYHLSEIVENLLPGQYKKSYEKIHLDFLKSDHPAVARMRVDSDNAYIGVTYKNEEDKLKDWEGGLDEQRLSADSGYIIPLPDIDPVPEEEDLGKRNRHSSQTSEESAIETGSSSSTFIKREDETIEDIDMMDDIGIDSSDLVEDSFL
UniProt P11362, whole entry, looked up: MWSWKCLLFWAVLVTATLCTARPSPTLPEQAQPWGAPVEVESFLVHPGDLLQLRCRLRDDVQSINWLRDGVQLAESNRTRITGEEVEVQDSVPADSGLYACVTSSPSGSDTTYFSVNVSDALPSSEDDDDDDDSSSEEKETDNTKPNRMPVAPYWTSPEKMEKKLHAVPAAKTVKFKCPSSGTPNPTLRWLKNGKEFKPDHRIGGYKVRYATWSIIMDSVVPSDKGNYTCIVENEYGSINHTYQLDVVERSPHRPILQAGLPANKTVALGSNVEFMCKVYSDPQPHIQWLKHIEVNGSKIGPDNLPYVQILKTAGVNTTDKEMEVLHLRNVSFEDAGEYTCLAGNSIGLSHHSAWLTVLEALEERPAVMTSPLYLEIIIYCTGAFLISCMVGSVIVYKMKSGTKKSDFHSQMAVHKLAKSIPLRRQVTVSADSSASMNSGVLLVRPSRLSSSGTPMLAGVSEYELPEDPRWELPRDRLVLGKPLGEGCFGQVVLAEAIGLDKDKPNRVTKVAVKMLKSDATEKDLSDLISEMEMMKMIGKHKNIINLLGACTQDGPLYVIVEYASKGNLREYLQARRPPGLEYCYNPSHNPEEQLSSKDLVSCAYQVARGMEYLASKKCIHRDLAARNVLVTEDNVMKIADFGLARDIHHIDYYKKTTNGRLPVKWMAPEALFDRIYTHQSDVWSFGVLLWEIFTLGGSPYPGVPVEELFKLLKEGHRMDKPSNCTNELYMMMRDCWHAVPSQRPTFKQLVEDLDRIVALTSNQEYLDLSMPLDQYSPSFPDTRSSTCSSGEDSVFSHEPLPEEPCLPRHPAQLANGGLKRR
UniProt P49841: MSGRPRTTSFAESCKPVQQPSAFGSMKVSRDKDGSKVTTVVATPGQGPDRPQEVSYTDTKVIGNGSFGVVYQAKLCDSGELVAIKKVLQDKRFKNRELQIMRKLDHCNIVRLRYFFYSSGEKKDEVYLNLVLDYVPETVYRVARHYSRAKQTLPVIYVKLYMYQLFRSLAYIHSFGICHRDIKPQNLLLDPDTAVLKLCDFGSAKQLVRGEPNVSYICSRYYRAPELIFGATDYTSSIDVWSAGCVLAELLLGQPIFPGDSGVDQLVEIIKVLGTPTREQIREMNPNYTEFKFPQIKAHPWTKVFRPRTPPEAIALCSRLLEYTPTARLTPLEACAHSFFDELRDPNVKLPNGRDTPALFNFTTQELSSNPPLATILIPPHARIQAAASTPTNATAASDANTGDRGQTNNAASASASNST
UniProt P51451: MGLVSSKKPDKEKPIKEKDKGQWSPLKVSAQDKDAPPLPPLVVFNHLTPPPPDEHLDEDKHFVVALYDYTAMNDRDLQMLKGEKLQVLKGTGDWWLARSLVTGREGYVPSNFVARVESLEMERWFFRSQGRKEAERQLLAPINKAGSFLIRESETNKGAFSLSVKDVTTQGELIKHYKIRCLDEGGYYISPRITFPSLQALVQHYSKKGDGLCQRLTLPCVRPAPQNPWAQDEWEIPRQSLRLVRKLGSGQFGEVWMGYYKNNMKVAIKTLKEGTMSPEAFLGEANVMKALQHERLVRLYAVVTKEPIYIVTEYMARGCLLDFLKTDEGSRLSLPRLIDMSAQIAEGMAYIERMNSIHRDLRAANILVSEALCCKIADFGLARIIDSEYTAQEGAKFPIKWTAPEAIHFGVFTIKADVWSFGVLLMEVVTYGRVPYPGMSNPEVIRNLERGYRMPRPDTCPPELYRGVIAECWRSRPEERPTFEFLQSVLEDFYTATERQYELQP

According to the kinase profiling compilation of Christmann-Franck et al. (2016):

Legend:
Experiment in all cases: radiometric filter-binding kinase assay, Kinase HotSpot
Conditions in all cases: compound 0.5 µM; ATP 10 µM
PRKD2 (human) = PRKD2 (human) (UniProt Q9BZL6)
BMX (human) = BMX (human) (UniProt P51813)
MAP2K2 (human) = MAP2K2 (human) (UniProt P36507)
STK16 (human) = STK16 (human) (UniProt O75716)
TTK (human) = TTK (human) (UniProt P33981)
NEK6 (human) = NEK6 (human) (UniProt Q9HC98)
PRKACA (human) = PRKACA (human) (UniProt P17612)
FGFR3 (human) = FGFR3 (human) (UniProt P22607)
CAMK2D (human) = CAMK2D (human) (UniProt Q13557)
RPS6KB1 (human) = RPS6KB1 (human) (UniProt P23443)
CHEK1 (human) = CHEK1 (human) (UniProt O14757)
ACVR1 (human) = ACVR1 (human) (UniProt Q04771)
ERBB2 (human) = ERBB2 (human) (UniProt P04626)
PHKG2 (human) = PHKG2 (human) (UniProt P15735)
DAPK3 (human) = DAPK3 (human) (UniProt O43293)
PRKX (human) = PRKX (human) (UniProt P51817)
MKNK2 (human) = MKNK2 (human) (UniProt Q9HBH9)
PRKCZ (human) = PRKCZ (human) (UniProt Q05513)
PKN2 (human) = PKN2 (human) (UniProt Q16513)
CSK (human) = CSK (human) (UniProt P41240)
TYRO3 (human) = TYRO3 (human) (UniProt Q06418)
ADRBK2 (human) = ADRBK2 (human) (UniProt P35626)
YES1 (human) = YES1 (human) (UniProt P07947)
DSTYK (human) = DSTYK (human) (UniProt Q6XUX3)
MAPK13 (human) = MAPK13 (human) (UniProt O15264)
IRAK4 (human) = IRAK4 (human) (UniProt Q9NWZ3)
BTK (human) = BTK (human) (UniProt Q06187)
TBK1 (human) = TBK1 (human) (UniProt Q9UHD2)
DDR2 (human) = DDR2 (human) (UniProt Q16832)
STK39 (human) = STK39 (human) (UniProt Q9UEW8)
MAP3K11 (human) = MAP3K11 (human) (UniProt Q16584)
ZAP70 (human) = ZAP70 (human) (UniProt P43403)
CAMK4 (human) = CAMK4 (human) (UniProt Q16566)
EPHB4 (human) = EPHB4 (human) (UniProt P54760)
EPHB2 (human) = EPHB2 (human) (UniProt P29323)
PDGFRA (human) = PDGFRA (human) (UniProt P16234)
CDC42BPA (human) = CDC42BPA (human) (UniProt Q5VT25)
FGFR1 (human) = FGFR1 (human) (UniProt P11362)
GSK3B (human) = GSK3B (human) (UniProt P49841)
CSNK1G3 (human) = CSNK1G3 (human) (UniProt Q9Y6M4)
BLK (human) = BLK (human) (UniProt P51451)
DCLK2 (human) = DCLK2 (human) (UniProt Q8N568)

CO[C@H]1[C@@H](OC)C[C@H](C)[C@@H](OC)C2=CC(=O)C=C(NC(=O)/C(C)=C\C=C/[C@H](OC)[C@@H](OC(N)=O)/C(C)=C\[C@@H]1C)C2=O
residual activity (PRKD2 (human)): 93.7%
residual activity (BMX (human)): 101%
residual activity (MAP2K2 (human)): 101%
residual activity (STK16 (human)): 101%
residual activity (TTK (human)): 118%
residual activity (NEK6 (human)): 101%
residual activity (PRKACA (human)): 94.2%
residual activity (FGFR3 (human)): 93.9%
residual activity (CAMK2D (human)): 101%
residual activity (RPS6KB1 (human)): 95.6%
residual activity (CHEK1 (human)): 95.4%
residual activity (ACVR1 (human)): 102%
residual activity (ERBB2 (human)): 102%
residual activity (PHKG2 (human)): 100%
residual activity (DAPK3 (human)): 98.9%
residual activity (PRKX (human)): 97.2%
residual activity (MKNK2 (human)): 91.5%
residual activity (PRKCZ (human)): 86.8%
residual activity (PKN2 (human)): 100%
residual activity (CSK (human)): 98%
residual activity (TYRO3 (human)): 96.9%
residual activity (ADRBK2 (human)): 101%
residual activity (YES1 (human)): 90.5%
residual activity (DSTYK (human)): 110%
residual activity (MAPK13 (human)): 104%
residual activity (IRAK4 (human)): 105%
residual activity (BTK (human)): 103%
residual activity (TBK1 (human)): 101%
residual activity (DDR2 (human)): 97.9%
residual activity (STK39 (human)): 86.5%
residual activity (MAP3K11 (human)): 90%
residual activity (ZAP70 (human)): 102%
residual activity (CAMK4 (human)): 97.7%
residual activity (EPHB4 (human)): 96.9%
residual activity (EPHB2 (human)): 86.9%
residual activity (PDGFRA (human)): 92.1%
residual activity (CDC42BPA (human)): 91.6%
residual activity (FGFR1 (human)): 93.1%
residual activity (GSK3B (human)): 98.7%
residual activity (CSNK1G3 (human)): 95.2%
residual activity (BLK (human)): 101%
residual activity (DCLK2 (human)): 96.9%
